Consider one compound from BindingDB's records for doi:10.1016/s1388-1981(99)00164-x (Merck Frosst Centre For Therapeutic Research, 2000).

Amino acid sequences for entries named in this document (tags omitted). A change or cut given only in a name is not applied to a line headed by its entry.
UniProt P43116: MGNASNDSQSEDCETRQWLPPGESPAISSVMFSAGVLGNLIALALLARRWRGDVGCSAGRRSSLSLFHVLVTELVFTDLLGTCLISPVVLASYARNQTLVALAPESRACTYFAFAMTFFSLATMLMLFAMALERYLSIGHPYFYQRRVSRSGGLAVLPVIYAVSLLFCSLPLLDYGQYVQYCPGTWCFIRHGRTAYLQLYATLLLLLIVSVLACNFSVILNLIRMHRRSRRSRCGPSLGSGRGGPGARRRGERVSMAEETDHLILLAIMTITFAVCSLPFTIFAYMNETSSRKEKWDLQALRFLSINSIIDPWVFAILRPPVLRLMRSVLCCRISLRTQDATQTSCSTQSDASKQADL

For orientation: pKi means the negative decadic logarithm of the Ki, by convention in mol/L. Low values mean a large Ki, high ones a small Ki.

pKi: −log10 of the molar value.

This test deals with Prostaglandin E2 receptor EP2 subtype (Homo sapiens, UniProt P43116).

Compound `CCCCC[C@H](O)/C=C/[C@H]1[C@H](O)CC(=O)[C@@H]1C/C=C\CCCC(=O)O` [DINOPROSTONE] gave a pKi of 8.31.
